pKd: −log10 of the molar value.
Molecular target: Kissorphin-6 (human)

| Substance | pKd |
| --- | --- |
| Aß 1-40 (peptide; modification not given) | 9.33 |
| Aß 1-42 (peptide; modification not given) | 9.21 |
